{"source": "ChEMBL document CHEMBL4842321", "about": "“Novel benzenesulfonamides aryl and arylsulfone conjugates adopting tail/dual tail approaches: Synthesis, carbonic anhydrase inhibitory activity and molecular modeling studies” (Eur J Med Chem, 2021)", "species_on_record": "Homo sapiens", "test": "Selectivity index. ratio of IC50 for Antiproliferation activity against human MCF-10A to IC50 for Antiproliferation activity against human MCF7", "data": [{"smiles": "O=c1[nH]cc(F)c(=O)[nH]1", "note": "[FLUOROURACIL]", "values": [{"measurement": "Selectivity Index", "result": 1.38}]}]}
